Tested on: Smad signaling pathway of TGFβRI
Assay: Inhibition of Smad signaling pathway of TGFβRI (3TP-lux luciferase reporter in HepG2 cell)
Assay type: cell-based
Details: Homo sapiens, HepG2, 18 h, read-out: IC50 on the inhibition of Smad signaling pathway of TGFβRI
Procedure: The inhibition effect of the compounds of the present invention on Smad signaling pathway of TGFβRI was determined by the following in vitro test.
The inhibition effect of the compounds of the present invention on Smad signaling pathway of TGFβRI was determined by the following experimental method:
On a 96-well plate, 100 μL of HepG2 cell (TCHu 72, Cell Bank of Typical Culture Collection Committee of Chinese Academy of Sciences) was seeded on an EMEM medium containing 10% FBS (42360-099, Gibco) in each well. The seeding density is 2.5×10^4 cells/well. The cells were incubated overnight at 37° C., 5% CO2. Each well was replaced with fresh EMEM medium containing 10% FBS. 0.1 g of 3TP-lux plasmid (11767, Biovector Science Lab, Inc.) was transfected in each well. The cells were further incubated for 24 hours at 37° C., 5% CO2. Each well was replaced with 90 μL of EMEM medium containing 0.5% FBS, then the cells were starved for 6 hours. The compounds were formulated as a 20 mM stock solution, which was diluted in gradient to a 400× concentration with 100% DMSO, and further 40-fold diluted with EMEM containing 0.5% FBS. […] The chemiluminescence signal values were measured with a Victor 3.0 (PerkinElmer). The IC50 values of the compounds were calculated using Graphpad Prism software based on each concentration of the compound and the corresponding signal value thereof.

`Cc1cccc(-c2nc3n(c2-c2ccnc(-c4ccc(C(=O)NC5CCOCC5)cc4)c2)C2CCC3C2)n1` (stereo not shown) [Example 17, 4-(4-(2-(6-Methylpyridin-2-yl)-5,6,7,8-tetrahydro-5,8-methanoimidazo[1,2-a]pyridin-3-yl)pyridin-2-yl)-N-(tetrahydro-2H-pyran-4-yl)benzamide] was tested, and the IC50 was 96 nM.
